Other data for one substance are collected here from paper PMC6203815.

The assay deals with Pfs48/45 6C domain (NF54) (Plasmodium falciparum).

As to “mAb TB31F (HC2-LC1), humanized IgG1 (antibody)”, the other worked out at 1 µg/mL.
